From patent US8163768B2, “1,4-dihydropyridine-fused heterocycles, process for preparing the same, use and compositions containing them” (Aventis Pharma S.A.., priority 2005, dated 2012) come the findings set out here.

Chains of the proteins cited; added tags and fusions are not shown.
UniProt Q96GD4, whole entry, species assumed: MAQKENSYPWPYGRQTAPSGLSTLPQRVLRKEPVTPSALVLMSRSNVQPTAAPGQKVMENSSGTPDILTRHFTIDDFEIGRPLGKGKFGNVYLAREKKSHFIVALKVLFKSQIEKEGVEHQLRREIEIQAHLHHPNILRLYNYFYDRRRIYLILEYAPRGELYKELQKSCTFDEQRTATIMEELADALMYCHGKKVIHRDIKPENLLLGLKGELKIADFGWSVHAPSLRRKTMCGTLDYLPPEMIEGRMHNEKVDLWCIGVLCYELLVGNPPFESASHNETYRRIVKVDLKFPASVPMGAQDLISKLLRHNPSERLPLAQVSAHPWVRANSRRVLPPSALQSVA

This assay addresses T1, Aurora1 (Aurora-B) (Homo sapiens, UniProt Q96GD4).
T1 construct: Aurora-B: the full length protein (His tagged in N-terminal) has been co expressed in SF9 cells; poly-histidine (N); made in house; host or cells: SF9 cells
Briefly: Aurora 1 (Aurora B) kinase radioactivity scintillation assay using nickel chelate Flash plates. The assay is classed as biochemical. Particulars: 10 nM Aurora-B (co expressed with C3 fragment of INCEP), 500 nM NuMA substrate, 1 μM ATP with [33P] ATP, 5 mM MgCl2, 30 minutes, 37° C.

Read-outs that look alike come from different tables or passages of the source.

Consider `CCOC(=O)c1[nH]cc2c1NC1=C(C(=O)CCC1)C2c1ccc(Sc2nc3ccccc3[nH]2)o1` (stereo not drawn) [Example 105, 9-[5-(1H-Benzimidazol-2-ylsulfanyl)-furan-2-yl]-8-oxo-4,5,6,7,8,9-hexahydro-2H-pyrrolo[3,4-b]quinoline-3-carboxylic acid ethyl ester; compound with trifluoro-acetic acid], for which the IC50 (read-out: Aurora1 IC50) was 7 nM. With `CCOC(=O)c1[nH]cc2c1NC1=C(C(=O)CCC1)C2c1ccc(Sc2nc3ccccc3[nH]2)o1` (single isomer, unassigned; (+)) [119a (+), (+)-9-[5-(1H-Benzimidazol-2-ylsulfanyl)-furan-2-yl]-8-oxo-4,5,6,7,8,9-hexahydro-2H-pyrrolo[3,4-b]quinoline-3-carboxylic acid ethyl ester], the half-inhibitory concentration (IC50) (Aurora1 IC50 (nM)) was found to be 3 nM. Take `CCOC(=O)c1[nH]cc2c1NC1=C(C(=O)CCC1)C2c1ccc(Sc2nc3ccccc3[nH]2)o1` (single isomer, unassigned; (-)) [119b (−), (−)-9-[5-(1H-Benzimidazol-2-ylsulfanyl)-furan-2-yl]-8-oxo-4,5,6,7,8,9-hexahydro-2H-pyrrolo[3,4-b]quinoline-3-carboxylic acid ethyl ester]: for the setting “read-out: Aurora1 IC50”, the IC50 was determined as 483 nM.
